According to PubChem BioAssay AID1645887 (National Center for Advancing Translational Sciences (NCATS), 2021):
“And” between values parts separate entries of the source, which are not always exact repeats. Equal entries are not always repeated. The entries are a selection whose mix differs from that of the whole data set. The source made the active and inactive calls. The call rests on the fitted dose curve; in most records, active means well fitted activation curve with a large enough effect; inconclusive means small, poorly fitted or top-dose-only effect, or another doubt; inactive means no such curve, though single readings can be large or run the other way.

The chains behind the UniProt entries cited, without tags or fusion partners. Where a name states a change or a piece, a line headed by the entry shows the natural chain unless it says otherwise.
UniProt Q8WZA2: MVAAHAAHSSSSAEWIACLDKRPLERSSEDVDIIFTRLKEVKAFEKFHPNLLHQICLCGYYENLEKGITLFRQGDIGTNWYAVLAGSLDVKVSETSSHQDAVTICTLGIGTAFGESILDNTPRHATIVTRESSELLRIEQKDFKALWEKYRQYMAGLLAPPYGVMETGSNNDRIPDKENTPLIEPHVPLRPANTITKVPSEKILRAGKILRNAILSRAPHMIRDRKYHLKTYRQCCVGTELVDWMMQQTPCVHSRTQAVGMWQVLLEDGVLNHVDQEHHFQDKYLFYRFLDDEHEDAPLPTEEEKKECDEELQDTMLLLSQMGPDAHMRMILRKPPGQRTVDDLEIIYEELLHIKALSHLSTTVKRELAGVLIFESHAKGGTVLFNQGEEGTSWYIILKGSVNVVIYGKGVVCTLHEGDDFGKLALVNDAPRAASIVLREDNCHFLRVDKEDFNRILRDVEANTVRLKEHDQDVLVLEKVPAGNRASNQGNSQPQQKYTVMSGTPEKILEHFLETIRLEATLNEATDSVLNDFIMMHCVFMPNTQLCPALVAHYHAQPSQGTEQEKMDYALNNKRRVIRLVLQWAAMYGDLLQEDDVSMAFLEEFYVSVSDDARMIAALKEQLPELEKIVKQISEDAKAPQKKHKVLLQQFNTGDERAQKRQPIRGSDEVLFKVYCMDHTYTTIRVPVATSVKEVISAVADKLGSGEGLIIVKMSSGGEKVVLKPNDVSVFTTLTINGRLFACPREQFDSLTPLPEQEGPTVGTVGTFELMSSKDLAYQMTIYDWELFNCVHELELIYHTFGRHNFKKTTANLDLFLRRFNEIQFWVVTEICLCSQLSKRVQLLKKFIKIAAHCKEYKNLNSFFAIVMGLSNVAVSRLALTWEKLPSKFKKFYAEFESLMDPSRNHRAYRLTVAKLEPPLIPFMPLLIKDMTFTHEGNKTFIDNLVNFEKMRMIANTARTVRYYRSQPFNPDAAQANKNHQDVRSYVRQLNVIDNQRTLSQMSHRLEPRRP

Target: Rap guanine nucleotide exchange factor 4 (Homo sapiens) (UniProt Q8WZA2)
Experiment: Validation qHTS for agonist of cAMP-regulated guanine nucleotide exchange factor 4 (EPAC2);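 further: exchange makes BODIPY-GDP fluorescence drop when released from Rap1B; series mostly up to about 150 µM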
Conditions: EPAC2 Rap1B BODIPY-GDP exchange, fluorescence; active compounds read high
Source text: Principle Investigator: Xiaodong Cheng Ph.D.
The University of Texas Medical Branch, […], TX
In multi-cellular eukaryotic organisms, the effects of cAMP are transduced by two ubiquitously-expressed intracellular cAMP receptors, the classic protein kinase A/cAMP-dependent protein kinase (PKA/cAPK) and the more recently discovered exchange protein directly activated by cAMP/cAMP-regulated guanine nucleotide exchange factor (EPAC/cAMP-GEF). Both PKA and EPAC are ubiquitously expressed in all tissues, and an increase in intracellular cAMP levels will lead to the activation of both PKA and EPAC. Therefore, careful dissections of the individual role and relative contribution of EPAC and PKA within the overall cAMP signaling in various model systems are critical for further elucidating the mechanism of cAMP signaling. To date no EPAC-specific antagonists and agonist, as well as isoform-specific agonists have been reported, and developing EPAC-specific pharmacological probes to determine the physiological functions that EPAC play in the overall cAMP-mediated signaling remains a major challenge within the research field. Furthermore, identified regulators of EPAC may lead to new mechanism-based therapeutic strategies specifically targeting the EPAC / cAMP-signaling components as EPAC has been implicated to play important roles in major human pathological conditions such as diabetes, heart disease, and cancer.
This qHTS will be used to screen the Molecular Libraries Small Molecule Repository (MLSMR) as a concentration-titration series using the NCGC unique quantitative screening (qHTS) platform to find activators for EPAC1. In addition, this assay will also be used as a counterscreen for the EPAC2 qHTS. This fluorescent based assay is developed and validated for EPAC1 that measures exchange using EPAC effector Rap1 complex with BODIPY-GDP, a GDP analog with a tethered fluorophores. Activators are identified by monitoring the change in fluorescence signal as the exchanged free BODIPY-GDP has a reduced fluorescence compared to Rap1-bound BODIPY-GDP. Increase in signal (activation) is the desired outcome for the EPAC1 agonist while no activity in this assay is desired for the EPAC2 agonist counterscreen.
[1] de Rooij, J., Zwartkruis, F. J., Verheijen, M. H., Cool, R. H., Nijman, S. M., Wittinghofer, A., and Bos, J.L. (1998) Nature 396, 474-477.
Briefly, three uL of reagents (100 nM EPAC2, 250 nM RAP1B-BODIPY-GDP, 50 uM GDP) were dispensed into a 1536-well Greiner black solid-bottom medium binding assay plate. Controls and test compounds (23 nL) were transferred to the plate via a Kalypsys pin tool equipped with a 1536-pin array. The plates were centrifuged at 1,000 rpm for 15 seconds followed by 5 minute incubation at room temperature. The assay plates were read at 5 minute intervals for 30 minutes in the ViewLux plate reader using 480nm excitation and 540nm emission filters. The results were normalized to the agonist positive control of 6.5 mM cAMP.
On the % scale 0 is the no-effect control and ±100 the full control effect.

Row | SMILES | activation
1 | CN(C(=O)Cc1ccccc1)[C@H]1CC[C@@]2(CCCO2)C[C@@H]1N1CCCC1 | inactive: 5.37%
2 | Cc1cc([N+](=O)[O-])cc([N+](=O)[O-])c1O | inactive: -5.48%
3 | COc1cccc([N+](=O)[O-])c1[N+](=O)[O-] | inactive: -12.9%
4 | O=[N+]([O-])c1cc([N+](=O)[O-])c2nc[nH]c2c1 | inactive: -19.2%
5 | O=C(OC1CN2CCC1CC2)c1ccccc1 (configuration not stated) | inactive: 6.98%
6 | CN(C(=O)Cc1ccc(Cl)c(Cl)c1)[C@@H]1CCCC[C@@H]1N1CCCC1 | inactive: 5.13%
7 | Nc1c(O)cc([N+](=O)[O-])cc1[N+](=O)[O-] | inactive: -28.8%
8 | CCNC(C)Cc1ccc2c(c1)OCO2 (configuration not stated) | inactive: -11.8%
9 | COc1cc([N+](=O)[O-])c([N+](=O)[O-])cc1OC | inactive: -26.8%
10 | CC(=O)C1=CCCC2CCC1N2 (configuration not stated) | inactive: 4.08%
11 | Cc1cc(C=O)ccc1N(CCCl)CCCl | inactive: -15.4%
12 | CN(C(=O)Cc1ccc(Cl)c(Cl)c1)[C@H]1CC[C@@]2(CCCO2)C[C@@H]1N1CCCC1 | inactive: 1.35%
13 | CN(C(=O)Cc1ccccc1)[C@@H]1CC[C@]2(CCCO2)C[C@H]1N1CCCC1 | inactive: 16.6%
14 | NC(=O)Nc1ccc([As](=O)(O)O)cc1 | inactive: -14.2%
15 | CN(C(=O)Cc1ccc(Cl)c(Cl)c1)[C@@H]1CC[C@]2(CCCO2)C[C@H]1N1CCCC1 | inactive: -17%
16 | CN(CCCl)Cc1cc(Cl)c(NC2=NCCN2)c(Cl)c1 | inactive: -3.61% and inactive: -16.4%
17 | CN(C(=O)Cc1ccc(Cl)c(Cl)c1)[C@@H]1CCCC[C@H]1N1CCCC1 | inactive: 6.19%
